One assay deals with Pfeiffer cells. Description: Calcein AM proliferation assay, Pfeiffer cells. Type of assay: cell-based. The settings on record: Homo sapiens, day 14 data, Calcein AM staining.
Another assay addresses T1, Mutant EZH2 (A677G) (Homo sapiens, UniProt Q15910, A677G).
T1 construct: purchased BPS 51004
Description: AlphaLISA assay on mutant PRC2 complex, EZH2 A677G. Type of assay: biochemical. In general terms: Bead proximity is the source of the signal in Alpha formats.

The chains behind the UniProt entries cited, without tags or fusion partners.
UniProt Q15910, whole entry A677G: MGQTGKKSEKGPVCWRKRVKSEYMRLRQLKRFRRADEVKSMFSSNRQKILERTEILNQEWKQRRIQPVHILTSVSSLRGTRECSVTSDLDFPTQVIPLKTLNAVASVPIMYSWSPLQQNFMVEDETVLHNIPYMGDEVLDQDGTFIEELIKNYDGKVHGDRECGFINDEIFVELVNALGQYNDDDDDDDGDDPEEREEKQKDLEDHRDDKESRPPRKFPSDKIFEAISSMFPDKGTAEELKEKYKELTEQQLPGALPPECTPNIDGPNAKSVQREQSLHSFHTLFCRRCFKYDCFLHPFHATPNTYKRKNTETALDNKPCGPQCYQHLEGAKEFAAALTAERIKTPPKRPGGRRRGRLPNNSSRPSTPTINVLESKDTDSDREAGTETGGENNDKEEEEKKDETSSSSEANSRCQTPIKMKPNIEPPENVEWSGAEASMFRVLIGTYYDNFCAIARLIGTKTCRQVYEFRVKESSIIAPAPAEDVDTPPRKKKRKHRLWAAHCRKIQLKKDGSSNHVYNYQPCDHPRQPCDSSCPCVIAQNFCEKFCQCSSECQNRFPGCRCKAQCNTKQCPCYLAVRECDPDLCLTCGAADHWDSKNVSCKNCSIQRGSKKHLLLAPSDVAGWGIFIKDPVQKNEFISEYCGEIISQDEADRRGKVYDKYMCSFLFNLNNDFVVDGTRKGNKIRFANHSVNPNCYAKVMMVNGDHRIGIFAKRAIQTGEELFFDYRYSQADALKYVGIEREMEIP
UniProt Q15910, whole entry Y641F: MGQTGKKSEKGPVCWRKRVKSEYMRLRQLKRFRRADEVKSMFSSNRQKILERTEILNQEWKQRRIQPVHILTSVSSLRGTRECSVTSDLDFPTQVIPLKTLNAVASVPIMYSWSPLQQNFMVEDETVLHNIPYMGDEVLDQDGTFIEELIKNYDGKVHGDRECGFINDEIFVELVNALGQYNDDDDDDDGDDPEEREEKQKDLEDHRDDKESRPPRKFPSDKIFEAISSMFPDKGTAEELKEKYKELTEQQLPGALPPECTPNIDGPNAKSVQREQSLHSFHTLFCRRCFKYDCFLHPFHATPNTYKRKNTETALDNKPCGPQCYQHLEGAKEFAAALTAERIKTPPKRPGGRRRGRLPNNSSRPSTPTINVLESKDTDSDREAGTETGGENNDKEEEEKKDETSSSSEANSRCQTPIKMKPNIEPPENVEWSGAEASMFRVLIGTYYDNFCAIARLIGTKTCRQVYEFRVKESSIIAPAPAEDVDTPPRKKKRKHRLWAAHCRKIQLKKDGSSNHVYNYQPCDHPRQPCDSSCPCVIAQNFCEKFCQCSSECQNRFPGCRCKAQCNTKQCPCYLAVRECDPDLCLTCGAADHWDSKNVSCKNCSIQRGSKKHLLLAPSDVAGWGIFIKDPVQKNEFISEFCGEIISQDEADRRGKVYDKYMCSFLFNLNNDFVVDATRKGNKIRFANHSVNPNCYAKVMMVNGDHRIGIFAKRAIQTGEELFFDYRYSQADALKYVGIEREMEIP
UniProt Q15910, whole entry Y641N: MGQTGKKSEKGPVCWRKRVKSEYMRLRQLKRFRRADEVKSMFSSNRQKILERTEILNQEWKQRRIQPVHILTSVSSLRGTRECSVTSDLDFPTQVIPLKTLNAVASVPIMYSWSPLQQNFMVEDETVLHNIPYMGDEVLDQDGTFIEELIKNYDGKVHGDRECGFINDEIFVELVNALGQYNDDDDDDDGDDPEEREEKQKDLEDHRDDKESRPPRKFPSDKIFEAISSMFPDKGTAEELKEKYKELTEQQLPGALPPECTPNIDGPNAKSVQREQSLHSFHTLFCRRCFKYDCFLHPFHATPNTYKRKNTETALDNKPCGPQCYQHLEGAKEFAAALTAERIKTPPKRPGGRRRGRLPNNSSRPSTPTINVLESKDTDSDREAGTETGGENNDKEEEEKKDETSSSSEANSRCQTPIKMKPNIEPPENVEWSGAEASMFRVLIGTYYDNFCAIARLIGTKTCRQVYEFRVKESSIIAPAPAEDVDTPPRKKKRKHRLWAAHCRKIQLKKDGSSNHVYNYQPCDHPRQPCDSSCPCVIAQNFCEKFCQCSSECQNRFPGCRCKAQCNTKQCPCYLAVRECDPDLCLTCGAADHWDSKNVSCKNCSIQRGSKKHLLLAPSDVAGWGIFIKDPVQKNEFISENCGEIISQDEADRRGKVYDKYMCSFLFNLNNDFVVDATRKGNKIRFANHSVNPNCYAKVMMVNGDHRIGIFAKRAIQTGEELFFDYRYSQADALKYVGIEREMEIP

The target of the next assay is T2, Mutant EZH2 (Y641F) (Homo sapiens, UniProt Q15910, Y641F).
T2 construct: purchased BPS 51004
Briefly: AlphaLISA assay on mutant PRC2 complex, EZH2 Y641F. It counts as biochemical.

Another assay has as its target T3, Mutant EZH2 (Y641N) (Homo sapiens, UniProt Q15910, Y641N).
T3 construct: purchased BPS 51004
Briefly: AlphaLISA assay on mutant PRC2 complex, EZH2 Y641N. It counts as biochemical.

Each structure is given as a SMILES string.

The term IC50 denotes the point on the concentration scale where inhibition reaches its midpoint.

For the molecule `CCN(c1cc(-c2ccc(C3(C(=O)O)CCOCC3)cc2)cc(C(=O)NCc2c(C)cc(C)[nH]c2=O)c1C)C1CCOCC1` [Compound 2, 4-(3′-(((4,6-dimethyl-2-carbonyl-1,2-dihydropyridin-3-yl)methyl)carbamoyl)-5′-(ethyl(tetrahydro-2H-pyran-4-yl)amino)-4′-methyl-[1,1′-biphenyl]-4-yl)tetrahydro-2H-pyran-4-carboxylic Acid], in the assay on Pfeiffer cells, the IC50 is 0.75 nM. At Mutant EZH2 (A677G), `CCN(c1cc(-c2ccc3c(c2)CCC3N2CCOCC2)cc(C(=O)NCc2c(C)cc(C)[nH]c2=O)c1C)C1CC(C)OC(C)C1` (centres unmarked) [Compound 13, N-((4,6-dimethyl-2-oxo-1,2-dihydropyridin-3-yl)methyl)-3-((2,6-dimethyltetrahydro-2H-pyran-4-yl)(ethyl)amino)-2-methyl-5-(1-morpholino-2,3-di hydro-1H-inden-5-yl)benzamide] came in with an IC50 of 0.46 nM. With `CCN(c1cc(-c2cc3c(cc2F)C(N2CCOCC2)CC3)cc(C(=O)NCc2c(C)cc(C)[nH]c2=O)c1C)C1CCOCC1` (centres unmarked) [Compound 24], the results for the half-inhibitory concentration (IC50) at Mutant EZH2 (Y641F) and on Mutant EZH2 (Y641N) were 0.75 nM and 0.46 nM, respectively. In turn, `CCN(c1cc(-c2cc3c(cc2F)C(N2CCOCC2)CC3)c(F)c(C(=O)NCc2c(C)cc(C)[nH]c2=O)c1C)C1CCOCC1` (centres unmarked) [Compound 28] gave an IC50 against Mutant EZH2 (Y641F) of 0.75 nM.

The values are drawn from patent US12595267B2, “Preparation method for amide compound and application thereof in field of medicine” (Shanghai Synergy Pharmaceutical Sciences Co., Ltd., priority 2019, dated 2026).
